Test results published in ChEMBL document CHEMBL1157659, “Design, synthesis, and biological evaluation of 3-[4-(2-hydroxyethyl)piperazin-1-yl]-7-(6-methoxypyridin-3-yl)-1-(2-propoxyethyl)pyrido[3,4-b]pyrazin-2(1H)-one, a potent, orally active, brain penetrant inhibitor of phosphodiesterase 5 (PDE5)” (J Med Chem, 2010).

How the values were obtained:
[1] = organism: Homo sapiens; test: Selectivity ratio of IC50 for human recombinant PDE11 to IC50 for human platelet PDE5
[2] = Fraction unbound in rat plasma; type: ADME, cell-free
[3] = organism: Homo sapiens; test: Selectivity ratio of IC50 for human retina PDE6 to IC50 for human platelet PDE5
[4] = organism: Homo sapiens; test: Plasma protein binding in human; conditions: read-out: PPB (converted)
[5] = organism: Homo sapiens; test: Fraction unbound in human plasma

- Ratio IC50 [1]: 2460
- fraction unbound [2]: 0.18
- Ratio IC50 [3]: 51
- fraction unbound [4]: 0.188
- fraction unbound [5]: 0.18
Compound: CCCOCCn1c(=O)c(N2CCNCC2)nc2cnc(-c3ccc(OC)nc3)cc21
